Measured values reported in patent US11786543B2, “Compositions comprising decitabine and tetrahydrouridine and uses thereof” (The Board of Trustees of the University of Illinois, priority 2008, dated 2023).

Test system: primary leukemia cells from patients
Conditions: decitabine 0.5 μM added 2×/week

Nc1ncn([C@H]2C[C@H](O)[C@@H](CO)O2)c(=O)n1 [Decitabine, 5-aza-2′-deoxycytidine]
DNA damage or immediate apoptosis: did not cause DNA damage or immediate apoptosis
